What was measured:
IDE [1] = target: T1, IDE (Homo sapiens, UniProt P14735); assay: Vulnerability of peptides to degradation by IDE: 0 vs 4 h pre-incubation, then FRET1 assay; type: biochemical; settings: 0-hr incubation (immediately after combining enzyme and peptide), individual runs
T1 construct: made in house; host or cells: bacteria
T1 sequence (P14735 1-1019): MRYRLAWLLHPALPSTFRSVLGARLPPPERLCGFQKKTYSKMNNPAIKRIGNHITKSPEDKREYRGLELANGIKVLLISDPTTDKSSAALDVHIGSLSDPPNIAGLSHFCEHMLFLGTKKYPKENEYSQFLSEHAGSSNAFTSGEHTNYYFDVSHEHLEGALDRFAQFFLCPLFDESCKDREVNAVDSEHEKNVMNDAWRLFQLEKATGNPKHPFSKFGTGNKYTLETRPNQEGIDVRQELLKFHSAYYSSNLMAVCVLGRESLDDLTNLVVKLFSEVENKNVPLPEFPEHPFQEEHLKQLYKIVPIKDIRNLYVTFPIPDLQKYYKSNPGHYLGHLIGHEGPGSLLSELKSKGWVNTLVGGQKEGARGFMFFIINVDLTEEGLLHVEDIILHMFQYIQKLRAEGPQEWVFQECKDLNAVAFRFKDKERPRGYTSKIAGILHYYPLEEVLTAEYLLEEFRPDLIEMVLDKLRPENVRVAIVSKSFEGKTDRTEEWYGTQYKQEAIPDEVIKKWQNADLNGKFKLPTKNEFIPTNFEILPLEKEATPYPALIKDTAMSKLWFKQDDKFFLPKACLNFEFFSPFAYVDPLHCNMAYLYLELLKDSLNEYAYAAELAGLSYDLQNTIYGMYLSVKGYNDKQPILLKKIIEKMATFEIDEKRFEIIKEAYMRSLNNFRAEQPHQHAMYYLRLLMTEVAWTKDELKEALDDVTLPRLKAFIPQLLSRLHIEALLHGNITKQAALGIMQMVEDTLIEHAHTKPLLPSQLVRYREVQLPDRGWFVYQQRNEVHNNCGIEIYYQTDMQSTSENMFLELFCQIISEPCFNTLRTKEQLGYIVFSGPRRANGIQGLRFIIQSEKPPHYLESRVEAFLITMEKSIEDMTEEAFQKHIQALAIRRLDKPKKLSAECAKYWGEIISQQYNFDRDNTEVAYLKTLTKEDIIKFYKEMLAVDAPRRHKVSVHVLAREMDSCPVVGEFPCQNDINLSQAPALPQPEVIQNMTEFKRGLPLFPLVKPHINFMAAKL

IDE [2] = target: T1, IDE; type: biochemical; settings: initial test at 500 uM

Compound | IC50 (IDE [1]) [µM] | IC50 <500 uM? (IDE [2])
CC(=O)N[C@@H](Cc1c[nH]c2ccccc12)C(=O)N[C@@H](CC(=O)O)C(=O)N[C@@H](Cc1ccccc1)C(=O)N[C@@H](CCCNC(=N)N)C(=O)N[C@@H](CCC(N)=O)C(=O)N[C@@H](Cc1c[nH]c2ccccc12)C(=O)N[C@@H](Cc1c[nH]c2ccccc12)C(=O)N[C@@H](CCC(N)=O)C(N)=O [P12-1D] | 209 | –
LPWCTPHC [P12-3D] | – | YES
WCYPHCVT [P12-3C] | – | YES
